Experiments:
[1] = tested on: Nc1ncnc2c1ncn2[C@@H]1O[C@H](COP(=O)(O)OP(=O)(O)OP(=O)(O)O)[C@@H](O)[C@H]1O; assay: purified protein; conditions: basal, no nucleosome, ATP:MgCl2:TRIS base 1:1:2, 37°C
[2] = biological target: human H2A-containing nucleosome labeled on histone H3 with AlexaFluor 647 (human) (UniProt P04908); assay: MST; labelled nucleosome fixed at 100 nM, two fold serial dilution of Ino80 complex; 25 mM HEPES, 50 mM NaCl, 1 mM TCEP, 10% glycerol, pH 8.0; 37°C; Kd fitted on temperature jump data
[3] = tested on: hIno80 core complex (wild type): Ino80ΔN, actin, Arp4, Arp5, Arp8, Ies2, Ies6, Tip49a, Tip49b (human); assay: MST; conditions: MST: 25 mM HEPES, 50 mM NaCl, 1 mM TCEP, 10% glycerol, pH 8.0, 37 C, 100 nM nucleosome, ligand experiments with 5 mM MgCl2
[4] = tested on: hIno80 core complex ΔArp5 ΔIes6 (human); assay: MST; conditions: MST: 25 mM HEPES, 50 mM NaCl, 1 mM TCEP, 10% glycerol, pH 8.0, 37 C, 100 nM nucleosome; ligand experiments with 5 mM MgCl2
[5] = tested on: hIno80 core complex ΔIes2 (human); assay: MST; conditions: MST: 25 mM HEPES, 50 mM NaCl, 1 mM TCEP, 10% glycerol, pH 8.0, 37 C, 100 nM nucleosome; ligand experiments with 5 mM MgCl2
[6] = biological target: human H2A-containing nucleosome labeled on histone H3 with AlexaFluor 647 (human) (UniProt P04908); assay: MST; +ATP, 5 mM MgCl2; conditions: complex
[7] = biological target: human H2A-containing nucleosome labeled on histone H3 with AlexaFluor 647 (human) (UniProt P04908); assay: MST; 1 mM ATP, 5 mM MgCl2; conditions: complex
[8] = biological target: human H2A-containing nucleosome labeled on histone H3 with AlexaFluor 647 (human) (UniProt P04908); assay: MST; no ligand, 5 mM MgCl2; conditions: complex
[9] = biological target: human H2A-containing nucleosome labeled on histone H3 with AlexaFluor 647 (human) (UniProt P04908); assay: MST; 5 mM MgCl2, no ligand; conditions: complex
[10] = biological target: human H2A-containing nucleosome labeled on histone H3 with AlexaFluor 647 (human) (UniProt P04908); assay: MST; +IP6, +ATP, 5 mM MgCl2; conditions: complex
[11] = biological target: human H2A-containing nucleosome labeled on histone H3 with AlexaFluor 647 (human) (UniProt P04908); assay: MST; 1 mM ATP + 250 uM IP6, 5 mM MgCl2; conditions: complex
[12] = biological target: human H2A-containing nucleosome labeled on histone H3 with AlexaFluor 647 (human) (UniProt P04908); assay: MST; as a7 but in the presence and absence of ligands: 1 mM ATP, IP6 (250 μM by the legend, 2 mM by the methods), 5 mM MgCl2
[13] = biological target: human H2A.Z-containing nucleosome (human) (UniProt P0C0S5); assay: MST; labelled nucleosome fixed at 100 nM, two fold serial dilution of Ino80 complex; 25 mM HEPES, 50 mM NaCl, 1 mM TCEP, 10% glycerol, pH 8.0; 37°C; Kd fitted on temperature jump data

Substance: hIno80ΔArp5/Ies6 complex (Homo sapiens)
- Km [1]: 225 ± 63 µM
- kcat [1]: 2.4 ± 0.2 ATP/complex/min

Substance: hIno80ΔArp5/Ies6 complex (from UniProt Q9ULG1 267-1556; P60709 1-375; O96019 1-429; Q9H981 1-624; Q9C086 1-356; Q9Y265 1-456; Q9Y230 1-463)
- Kd [2]: 106 nM

Substance: hIno80ΔArp5/Ies6/Ies2 complex (Homo sapiens)
- Km [1]: 244 ± 116 µM
- kcat [1]: 1.2 ± 0.2 ATP/complex/min

Substance: hIno80ΔIes2 complex (Homo sapiens)
- Km [1]: 273 ± 36 µM
- kcat [1]: 2.8 ± 0.1 ATP/complex/min

Substance: hIno80ΔIes2 complex (from UniProt Q9ULG1 267-1556; P60709 1-375; O96019 1-429; Q9H9F9 1-607; Q9H981 1-624; Q6PI98 1-192; Q9Y265 1-456; Q9Y230 1-463)
- Kd [2]: 29.7 nM

Substance: human H2A mononucleosome (Table 1)
- Kd [3]: 20.7 nM
- Kd [4]: 106 nM
- Kd [5]: 29.7 nM

Substance: human H2A-NCP, 100 bp overhang, H3AF647
- Kd ([3]; 5 mM MgCl2, 1 mM ATP, IP6 (250 uM in Figure 3 legend; 2 mM in Methods)): 321 nM
- Kd ([3]; 5 mM MgCl2, ligand label not in material (probably no ligand)): 22.9 nM
- Kd ([3]; 5 mM MgCl2, ligand label not in material): 53.3 nM

Substance: human H2A.Z mononucleosome (Table 1)
- Kd [3]: 54.1 nM

Substance: human Ino80 core complex (hIno80) (from UniProt Q9ULG1 267-1556; P60709 1-375; O96019 1-429; Q9H9F9 1-607; Q9H981 1-624; Q9C086 1-356; Q6PI98 1-192; Q9Y265 1-456; Q9Y230 1-463)
- Kd [6]: 53.3 nM
- Kd [7]: 53 nM
- Kd [8]: 23 nM
- Kd [9]: 22.9 nM
- Kd [10]: 321 nM
- Kd [11]: 321 nM
- fold decrease in affinity in the presence of IP6 and ATP [12]: > 10 fold
- Kd [2]: 20.7 nM
- Kd [13]: 54.1 nM
